Publication PMC5833004 (ACS Central Science, 2018)

Amino acid sequences for entries named in this document (tags omitted). Residues count along the entry.
UniProt Q92793, 1085-1192 limits assumed: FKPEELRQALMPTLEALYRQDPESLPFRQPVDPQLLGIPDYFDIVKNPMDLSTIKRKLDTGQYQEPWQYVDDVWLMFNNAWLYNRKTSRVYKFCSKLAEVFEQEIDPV

How the values were obtained:
bromodomain of CBP = bromodomain of CBP (Homo sapiens, UniProt Q92793); assay: Alpha Screen assay; format: binding; details: according to AlphaScreen
CBP bromodomain = CBP bromodomain (Homo sapiens, UniProt Q92793); assay: BROMOscan competition binding assay; details: according to BROMOscan

ligand efficiency for CBP (bromodomain of CBP): 0.32 kcal mol^–1 per non-hydrogen atom
ligand efficiency for CBP (CBP bromodomain): 0.31 kcal mol^–1 per non-hydrogen atom
SMILES: CCOc1ccc(C(C)=O)cc1NC(=O)c1cc(NC(C)=O)cc(NC(=O)c2ccco2)c1 [Compound 16]
